From PubChem BioAssay (NCI)
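Test compounds were applied to cells in 96-well plates for 48 hours at 5 doses. Abbreviation: GI50, concentration required for 50% inhibition of growth. At the TGI there is no net growth.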

How the values were obtained:
Assay in all cases: NCI tumour cell line growth inhibition, 48 h
[1] = system: 786-0 renal
[2] = system: A498 renal
[3] = system: A549 NSCLC
[4] = system: ACHN renal
[5] = system: CCRF-CEM leukemia
[6] = system: DLD-1 colon
[7] = system: DMS 114 small cell lung
[8] = system: EKVX NSCLC
[9] = system: HCC-2998 colon
[10] = system: HCT-116 colon
[11] = system: HCT-15 colon
[12] = system: HL-60(TB) leukemia
[13] = system: HOP-18 NSCLC
[14] = system: HOP-62 NSCLC
[15] = system: HT29 colon
[16] = system: IGROV1 ovarian
[17] = system: K-562 leukemia
[18] = system: KM12 colon
[19] = system: KM20L2 colon
[20] = system: LOX IMVI melanoma
[21] = system: LXFL 529 NSCLC
[22] = system: M14 melanoma
[23] = system: M19-MEL melanoma
[24] = system: MALME-3M melanoma
[25] = system: MOLT-4 leukemia
[26] = system: NCI-H23 lung
[27] = system: NCI-H322M lung
[28] = system: NCI-H460 lung
[29] = system: OVCAR-3 ovarian
[30] = system: OVCAR-4 ovarian
[31] = system: OVCAR-8 ovarian
[32] = system: RPMI-8226 leukemia
[33] = system: RXF 393 renal
[34] = system: SF-268 CNS
[35] = system: SF-295 CNS
[36] = system: SF-539 CNS
[37] = system: SK-MEL-28 melanoma
[38] = system: SK-OV-3 ovarian
[39] = system: SN12C renal
[40] = system: SNB-19 CNS
[41] = system: SNB-75 CNS
[42] = system: SNB-78 CNS
[43] = system: SR leukemia
[44] = system: SW-620 colon
[45] = system: TK-10 renal
[46] = system: U251 CNS
[47] = system: UACC-257 melanoma
[48] = system: UACC-62 melanoma
[49] = system: UO-31 renal
[50] = system: XF 498 CNS

`Cc1[nH]c2c(C)c([N+](=O)[O-])c(C)c([N+](=O)[O-])c2c1[N+](=O)[O-]` gave a GI50 [1] of 11.3 µM, a TGI [1] of 24.2 µM and a GI50 [2] of 4.77 µM. It also gave a TGI [2] of 19.1 µM, a GI50 [3] of 5.68 µM and a TGI [3] of 35.7 µM. For the same compound, the GI50 [4] was 7.39 µM, the TGI [4] was 39.7 µM and the GI50 [5] was 4.41 µM. For the same compound, the TGI [5] was 28 µM, the GI50 [6] was 11.8 µM and the TGI [6] was 25.8 µM. For the same compound, the GI50 [7] was 3.26 µM, the TGI [7] was 14.2 µM and the GI50 [8] was 4.23 µM. For the same compound, the TGI [8] was 19.1 µM, the GI50 [9] was 4.19 µM and the TGI [9] was 16.3 µM. It also gave a GI50 [10] of 5.98 µM, a TGI [10] of 20.2 µM and a GI50 [11] of 4.98 µM. It also gave a TGI [11] of 18.4 µM, a TGI [12] of 21.8 µM and a GI50 [13] of 2.39 µM. For the same compound, the TGI [13] was 11.3 µM, the GI50 [14] was 11.9 µM and the TGI [14] was 24.3 µM. The GI50 [15] was 7.72 µM, the TGI [15] was 27.2 µM and the GI50 [16] was 5.11 µM. It also gave a TGI [16] of 21.2 µM, a GI50 [17] of 5.83 µM and a TGI [17] of 30.9 µM. It also gave a GI50 [18] of 10.5 µM, a TGI [18] of 23 µM and a GI50 [19] of 6.8 µM. The TGI [19] was 25.9 µM, the GI50 [20] was 4.61 µM and the TGI [20] was 16.6 µM. The GI50 [21] was 9.51 µM, the TGI [21] was 31.7 µM and the GI50 [22] was 13.4 µM. For the same compound, the TGI [22] was 27.2 µM, the GI50 [23] was 10 µM and the TGI [23] was 22.6 µM. It also gave a GI50 [24] of 5.21 µM, a TGI [24] of 23.5 µM and a GI50 [25] of 4.63 µM. The TGI [25] was 22 µM, the GI50 [26] was 3.49 µM and the TGI [26] was 12.2 µM. The GI50 [27] was 11 µM, the TGI [27] was 29.4 µM and the GI50 [28] was 10.5 µM. The TGI [28] was 24.3 µM, the GI50 [29] was 3.27 µM and the TGI [29] was 16.6 µM. For the same compound, the GI50 [30] was 10 µM, the TGI [30] was 28.8 µM and the GI50 [31] was 6.13 µM. The TGI [31] was 22.9 µM, the GI50 [32] was 3.66 µM and the TGI [32] was 17.7 µM. For the same compound, the GI50 [33] was 9.59 µM, the TGI [33] was 21.9 µM and the GI50 [34] was 6.16 µM. It also gave a GI50 [35] of 6.2 µM, a TGI [35] of 19.1 µM and a GI50 [36] of 10.4 µM. The TGI [36] was 22.3 µM, the GI50 [37] was 6.49 µM and the TGI [37] was 20.3 µM. The GI50 [38] was 14.4 µM, the TGI [38] was 29.3 µM and the GI50 [39] was 11.8 µM. For the same compound, the TGI [39] was 27.3 µM, the GI50 [40] was 6.34 µM and the TGI [40] was 21.5 µM. The GI50 [41] was 16.3 µM, the TGI [41] was 30 µM and the GI50 [42] was 14.7 µM. It also gave a TGI [42] of 36.3 µM, a GI50 [43] of 6.47 µM and a TGI [43] of 25.4 µM. For the same compound, the GI50 [44] was 13.7 µM, the TGI [44] was 29.2 µM and the GI50 [45] was 9.64 µM. The TGI [45] was 61.2 µM, the GI50 [46] was 5.7 µM and the TGI [46] was 19.3 µM. It also gave a GI50 [47] of 5.81 µM, a TGI [47] of 17.1 µM and a GI50 [48] of 3.21 µM. The TGI [48] was 12.3 µM, the GI50 [49] was 6.52 µM and the TGI [49] was 20.3 µM. It also gave a GI50 [50] of 2.26 µM and a TGI [50] of 14.9 µM.
